This assay has as its system acetylcholinesterase (AchE). Description: acetylcholinesterase (AChE) inhibition in the brain and serum after i.p. administration. The class given is in vivo, rats. To be noted: for AChE inhibition, serum (M ± SE): Table I, 10 min, salicylate. The method, then:
The acetylcholinesterase (AchE) inhibition in the brain and serum was tested for the heptyl derivative in comparison with physostigmine. Both physostigmine and heptyl derivative were used in form of salycilate and dissolved in distilled water with carbossimethyl cellulose sodium salt at 2%.
Acetylcholinesterase (AChE) inhibition in the brain
and serum 10 min. after i.p. administration of different
doses of physostigmine and heptyl to rats
Acetylcholinesterase (AChE) inhibition in the brain and in serum after
i.p. administration of equiactive doses of
physostigmine and heptyl, at various time intervals (10-60-120 min.)

Setting [1] is: Table II, i.p. equiactive doses: Phys. 0.2, Hept. 1.0 mg/Kg, n=4.

The structures appear in SMILES notation.

Take `CNC(=O)Oc1ccc2c(c1)[C@]1(C)CCN(C)[C@@H]1N2C` [Eserine]: the “AChE inhibition, serum (M ± SE)” value runs as follows: (0.10 mg/kg i.p., n=4) 19.55 ± 8.29%; (0.15 mg/kg i.p., n=4) 32.93 ± 11.34%; (0.20 mg/kg i.p., n=4) 53.68 ± 2.41%. Also, the “% AChE Inhibition, serum, 10 minutes (M ± SE)” value under setting [1] is listed as 53.68 ± 2.41%. For the same compound, the “% AChE Inhibition, serum, 60 minutes (M ± SE)” value under setting [1] was determined as 9.82 ± 6.83%. In addition, the “% AChE Inhibition, serum, 120 minutes (M ± SE)” value under setting [1] worked out at 2.58 ± 1.49%. Besides, the “duration of the activity compared with heptyl derivative” value (brain and serum) is reported as “much lower”. Besides, where the note is “brain and serum, 10 minutes”, the “activity measured after 10 minutes compared with heptyl derivative” value is recorded as “higher than that of heptyl derivative”. Under “brain and serum, 120 minutes”, the “activity after 120 minutes” value was “becomes insignificant”.

The record behind these values is patent US4831155A (priority 1984, dated 1989).
